# Membrane permeability of cyclic peptides

Values of Townsend et al. 2020, doi:10.26434/chemrxiv.13335941.v1, as listed in CycPeptMPDB.

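Lipid, pH, incubation time, direction and concentration are not recorded in the data file. Other peptides of the study may be missing here. Peptides that the database sets to -10, its floor, are left out.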

PAMPA is the parallel artificial membrane permeability assay, which has no cells and reads passive diffusion.
P is given in units of 10^-6 cm/s (from log10 values with two decimals); larger means faster passage.

For CCCN1CC(=O)N[C@H](CC(C)C)C(=O)N(C)[C@@H](CC(C)C)C(=O)N2CCC[C@H]2C(=O)N[C@@H](CC(C)C)C(=O)N[C@@H](Cc2ccccc2)C(=O)N2CCC[C@@H]2C1=O the data give PAMPA 2.8 × 10^-6 cm/s.
For CCCN1CC(=O)N(C)[C@@H](CC(C)C)C(=O)N(C)[C@H](CC(C)C)C(=O)N2CCC[C@@H]2C(=O)N[C@H](CC(C)C)C(=O)N[C@@H](Cc2ccccc2)C(=O)N2CCC[C@H]2C1=O the data give PAMPA 10 × 10^-6 cm/s.
For CC(C)C[C@@H]1NC(=O)[C@@H](C)NC(=O)[C@H]2CCCN2C(=O)[C@H](Cc2ccccc2)NC(=O)[C@@H](CC(C)C)NC(=O)[C@@H]2CCCN2C(=O)CN(Cc2ccccc2)C1=O the data give PAMPA 0.2 × 10^-6 cm/s.
For CC(C)C[C@@H]1NC(=O)[C@@H](C)NC(=O)[C@H]2CCCN2C(=O)[C@H](Cc2ccccc2)NC(=O)[C@H](CC(C)C)N(C)C(=O)[C@H]2CCCN2C(=O)[C@H](CC(C)C)N(C)C1=O the data give PAMPA 3.3 × 10^-6 cm/s.
For CC(C)C[C@H]1NC(=O)[C@H](CC(C)C)N(C)C(=O)[C@@H](C)N(C)C(=O)[C@H]2CCCN2C(=O)[C@H](Cc2ccccc2)NC(=O)CN(Cc2ccccc2)C(=O)[C@H]2CCCN2C1=O the data give PAMPA 0.93 × 10^-6 cm/s.
For CC(C)C[C@@H]1NC(=O)[C@H](C)NC(=O)[C@H](Cc2ccccc2)NC(=O)[C@@H](CC(C)C)N(C)C(=O)[C@H]2CCCN2C(=O)[C@H](CC(C)C)NC1=O the data give PAMPA 2.1 × 10^-6 cm/s.
For CC(C)C[C@@H]1NC(=O)[C@@H](CC(C)C)N(C)C(=O)[C@H](C)NC(=O)[C@H](Cc2ccccc2)NC(=O)[C@@H](CC(C)C)N(C)C(=O)[C@H]2CCCN2C1=O the data give PAMPA 12 × 10^-6 cm/s.
For CC(C)C[C@@H]1C(=O)N[C@@H](Cc2ccccc2)C(=O)N2CCC[C@H]2C(=O)N[C@@H](Cc2ccccc2)CC(=O)N(C)[C@@H](CC(C)C)C(=O)N[C@H](CC(C)C)C(=O)N2CCC[C@@H]2C(=O)N1C the data give PAMPA 3.9 × 10^-6 cm/s.
For CC(C)C[C@@H]1NC(=O)[C@@H](C)N(C)C(=O)[C@H](Cc2ccccc2)NC(=O)CN(Cc2ccccc2)C(=O)[C@@H]2CCCN2C(=O)CN(Cc2ccccc2)C1=O the data give PAMPA 3.2 × 10^-6 cm/s.
For CC(C)C[C@@H]1NC(=O)[C@@H]2CCCN2C(=O)[C@@H](CC(C)C)N(C)C(=O)[C@H](CC(C)C)NC(=O)[C@H](C)N(C)C(=O)[C@H](Cc2ccccc2)NC1=O the data give PAMPA 11 × 10^-6 cm/s.
For CCCN1CC(=O)N[C@H](CC(C)C)C(=O)N(Cc2ccccc2)CC(=O)N2CCC[C@@H]2C(=O)N(C)[C@H](CC(C)C)C(=O)N[C@@H](Cc2ccccc2)C1=O the data give PAMPA 4.5 × 10^-6 cm/s.
For CC(C)C[C@@H]1C(=O)N[C@H](CC(C)C)C(=O)N2CCC[C@@H]2C(=O)N(C)[C@@H](CC(C)C)C(=O)N[C@@H](Cc2ccccc2)C(=O)N[C@H](C)C(=O)N1C the data give PAMPA 5 × 10^-6 cm/s.
For CC(C)C[C@@H]1NC(=O)[C@H](C)NC(=O)[C@H]2CCCN2C(=O)[C@H](Cc2ccccc2)NC(=O)CN(Cc2ccccc2)C(=O)[C@H]2CCCN2C(=O)CN(Cc2ccccc2)C1=O the data give PAMPA 0.6 × 10^-6 cm/s.
For CC(C)C[C@@H]1NC(=O)[C@H](C)NC(=O)[C@H](Cc2ccccc2)NC(=O)[C@@H](CC(C)C)N(C)C(=O)[C@H]2CCCN2C(=O)[C@@H](CC(C)C)N(C)C1=O the data give PAMPA 0.55 × 10^-6 cm/s.
For CC(C)C[C@@H]1C(=O)N[C@@H](Cc2ccccc2)C(=O)N2CCC[C@H]2C(=O)N[C@@H](Cc2ccccc2)CC(=O)N(C)[C@@H](CC(C)C)C(=O)N(Cc2ccccc2)CC(=O)N2CCC[C@@H]2C(=O)N1C the data give PAMPA 2.2 × 10^-6 cm/s.
For CCCN1CC(=O)N(C)[C@@H](CC(C)C)C(=O)N(C)[C@H](CC(C)C)C(=O)N2CCC[C@@H]2C(=O)N(C)[C@@H](CC(C)C)C(=O)N[C@@H](Cc2ccccc2)C(=O)N2CCC[C@@H]2C1=O the data give PAMPA 7.8 × 10^-6 cm/s.

The 2 lowest values of PAMPA among the entries above:

For CC(C)C[C@@H]1NC(=O)[C@@H](C)NC(=O)[C@H]2CCCN2C(=O)[C@H](Cc2ccccc2)NC(=O)[C@@H](CC(C)C)NC(=O)[C@@H]2CCCN2C(=O)CN(Cc2ccccc2)C1=O the data give PAMPA 0.2 × 10^-6 cm/s.
For CC(C)C[C@@H]1NC(=O)[C@H](C)NC(=O)[C@H](Cc2ccccc2)NC(=O)[C@@H](CC(C)C)N(C)C(=O)[C@H]2CCCN2C(=O)[C@@H](CC(C)C)N(C)C1=O the data give PAMPA 0.55 × 10^-6 cm/s.